Assay results from patent US8835442B2, “3-substituted 7-imino-2-thioxo-3, 7-dihydro-2H-thiazolo [4,5-di pyrimidin-6-yl—and process for preparation thereof” (Council of Scientific & Industrial Research, priority 2009, dated 2014).

Target: T1, A2A receptor (Homo sapiens, UniProt P29274)
T1 construct: host or cells: HEK 293
Experiment: cAMP functional assay in forskolin-pretreated HEK 293 cells
Format: cell-based
Settings: 25 μM forskolin 2 h, then 100 nM compound for 24 h
Method: To determine the modulation in cAMP concentrations, cells were pre-treated with Forskolin. Forskolin is commonly used to activate adenylyl cyclase, so as to raise the levels of cAMP, in the various cell physiology experiments. […] Cells were washed with ice-cold PBS (pH 7.4). Further, cells were treated with 0.1M HCl, incubated for 10 minutes and visually inspected to verify cell lysis. Lysed cells were centrifuged at 1000 rpm at room temperature and the supernatant was used directly for cAMP assay using direct cAMP assay kit. All standards and samples were run in duplicate. […]
The average net O.D. bound for each standard and sample was calculated using formula; Average Net OD=Average bound OD−Average NSB OD
The binding of each pair of standard wells as a percentage of the maximum binding well (Bo) was calculated using the formula; Percent Bound=Net OD/Net Bo OD×100
Standard curve was prepared using Logit-Log Paper plot by drawing percent bound (B/Bo) versus concentration of cAMP for the standards. The concentration of the cAMP in the samples was determined by interpolation.
Binding parameters were estimated by the computerized non-linear fitting program Graph Pad (Prism 4.0). […] Data were expressed as geometric means with 95% confidence limits in parentheses. […]

Nc1nc2c(cnn2CCc2ccccc2)c2nc(-c3ccco3)nn12 [SCH58261, reference compound]
cAMP concentration: 0.25 nM
